By UniProt entry, the sequences of proteins in these tests, tags left out. Where a name states a change or a piece, a line headed by the entry shows the natural chain unless it says otherwise.
UniProt P28221: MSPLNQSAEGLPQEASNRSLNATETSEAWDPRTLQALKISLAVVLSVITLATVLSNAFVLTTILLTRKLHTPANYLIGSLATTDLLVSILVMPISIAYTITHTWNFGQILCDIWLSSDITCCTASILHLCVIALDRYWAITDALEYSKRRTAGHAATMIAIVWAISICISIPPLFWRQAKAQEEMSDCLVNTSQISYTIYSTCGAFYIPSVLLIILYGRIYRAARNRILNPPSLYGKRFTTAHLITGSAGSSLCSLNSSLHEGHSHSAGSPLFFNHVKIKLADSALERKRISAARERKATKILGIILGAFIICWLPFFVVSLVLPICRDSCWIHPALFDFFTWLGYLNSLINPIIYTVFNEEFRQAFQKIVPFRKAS
UniProt P50406, whole entry: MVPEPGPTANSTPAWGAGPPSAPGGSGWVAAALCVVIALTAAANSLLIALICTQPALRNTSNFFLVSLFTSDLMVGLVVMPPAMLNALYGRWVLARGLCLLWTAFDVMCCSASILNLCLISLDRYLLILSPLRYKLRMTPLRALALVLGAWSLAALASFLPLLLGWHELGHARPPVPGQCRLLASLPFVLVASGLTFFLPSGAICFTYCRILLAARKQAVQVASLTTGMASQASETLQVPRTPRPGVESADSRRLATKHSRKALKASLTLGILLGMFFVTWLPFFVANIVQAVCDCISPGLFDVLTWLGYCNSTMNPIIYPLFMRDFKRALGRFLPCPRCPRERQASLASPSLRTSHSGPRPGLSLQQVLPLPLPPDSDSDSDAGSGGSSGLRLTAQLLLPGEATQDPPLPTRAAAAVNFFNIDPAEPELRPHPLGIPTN

In publication PMC3796951 (Psychopharmacology, 2012):

Columns and labels:
5-HT1D = 5-HT1D (Homo sapiens, UniProt P28221); test: biochemical
5-HT2C = target: T1, 5-HT2C (Rattus norvegicus, UniProt P08909); test: Radioligand binding
T1 sequence (P08909 33-460): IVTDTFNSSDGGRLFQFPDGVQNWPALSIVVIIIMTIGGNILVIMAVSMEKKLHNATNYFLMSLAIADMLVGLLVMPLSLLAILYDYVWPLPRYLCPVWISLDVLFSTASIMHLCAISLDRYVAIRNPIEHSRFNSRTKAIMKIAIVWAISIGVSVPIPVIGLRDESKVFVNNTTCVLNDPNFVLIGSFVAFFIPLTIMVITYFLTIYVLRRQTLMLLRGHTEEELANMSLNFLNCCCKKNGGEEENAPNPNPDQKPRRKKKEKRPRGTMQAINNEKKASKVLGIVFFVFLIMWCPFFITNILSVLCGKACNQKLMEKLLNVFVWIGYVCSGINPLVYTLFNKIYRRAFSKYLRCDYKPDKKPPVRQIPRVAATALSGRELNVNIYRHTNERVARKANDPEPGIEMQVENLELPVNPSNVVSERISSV

5-HT6 = 5-HT6 (Homo sapiens, UniProt P50406); test: Radioligand binding

For `COc1ccc2[nH]cc(CCN(C)C)c2c1.O=C(O)C(=O)O` [5-MeO-DMT, 5-Methoxy-N, N-dimethyltryptamine oxalate], the Ki (5-HT1D) was 2.3 nM, the Ki (5-HT2C) was 418 nM and the Ki (5-HT6) was 6.5 nM.
